Data from patent publication US8962608B2, “Cycloalkylnitrile pyrazole carboxamides as janus kinase inhibitors” (Merck Sharp & Dohme Corp., priority 2011, dated 2015).

The chains behind the UniProt entries cited, without tags or fusion partners. Residues count along the entry.
UniProt P23458, 875-1153: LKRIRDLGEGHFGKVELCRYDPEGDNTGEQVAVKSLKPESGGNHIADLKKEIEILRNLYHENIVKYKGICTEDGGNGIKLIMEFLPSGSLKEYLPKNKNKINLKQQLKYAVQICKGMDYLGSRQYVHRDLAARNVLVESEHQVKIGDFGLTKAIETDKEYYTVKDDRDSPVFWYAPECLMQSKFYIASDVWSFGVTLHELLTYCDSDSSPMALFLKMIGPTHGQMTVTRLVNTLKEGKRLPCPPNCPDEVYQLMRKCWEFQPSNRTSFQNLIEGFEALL

Target: JAK1 (recombinant purified GST-tagged catalytic domain) (Homo sapiens (Human), UniProt P23458)
Test: biochemical
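Also: biochemical assay with HTRF read-out.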

Row | SMILES | IC50 [nM]
1 | N#C[C@H]1C[C@@H](O)CC[C@@H]1n1cc(C(N)=O)c(Nc2ccc(Cl)nc2)n1 (single isomer, unassigned) [Example 33-14, 3-[(6-chloropyridin-3-yl)amino]-1-[(1S,2S,4S or 1R,2R,4R)-2-cyano-4-hydroxycyclohexyl]-1H-pyrazole-4-carboxamide] | 4
2 | CC(C)(C)OC(=O)NC1CC[C@H](C#N)C(n2cc(C(N)=O)c(Nc3ccc(F)cc3)n2)C1 (mixture of isomers) [Example 11-3, tert-butyl [(1R,3S,4S and 1S,3R,4R) or (1S,3S,4S and 1R,3R,4R)-3-{4-carbamoyl-3-[(4-fluorophenyl)amino]-1H-pyrazol-1-yl}-4-cyanocyclohexyl]carbamate] | 2
3 | CC1(CN[C@H]2CCC(n3cc(C(N)=O)c(Nc4ccc(Cl)cc4)n3)[C@@H](C#N)C2)COC1 (single isomer, unassigned) [Example 28-217, 3-[(4-chlorophenyl)amino]-1-[(1S,2S,4S or 1R,2R,4R)-2-cyano-4-{[(3-methyloxetan-3-yl)methyl]amino}cyclohexyl]-1H-pyrazole-4-carboxamide] | 2
4 | CC1(C)CN([C@H]2CC[C@H](n3cc(C(N)=O)c(Nc4ccc(Cl)cc4)n3)[C@@H](C#N)C2)C1 (single isomer, unassigned) [Example 28-144, 3-[(4-chlorophenyl)amino]-1-[(1S,2S,4S or 1R,2R,4R)-2-cyano-4-(3,3-dimethylazetidin-1-yl)cyclohexyl]-1H-pyrazole-4-carboxamide] | 1
5 | N#C[C@H]1C[C@@H](O)CC[C@@H]1n1cc(C(N)=O)c(Nc2ccc(OC(F)F)nc2)n1 (single isomer, unassigned) [Example 25-2, 1-[(1S,2S,4S or 1R,2R,4R)-2-cyano-4-hydroxycyclohexyl]-3-{[6-(difluoromethoxy)pyridin-3-yl]amino}-1H-pyrazole-4-carboxamide] | 2
6 | N#C[C@H]1C[C@@H](N2CCC2)CC[C@@H]1n1cc(C(N)=O)c(Nc2ccc(C=O)cc2)n1 (single isomer, unassigned) [Example 28-66, 1-[(1S,2S,4S or 1R,2R,4R)-4-azetidin-1-yl-2-cyanocyclohexyl]-3-[(4-formylphenyl)amino]-1H-pyrazole-4-carboxamide] | 0.45
7 | N#C[C@H]1C[C@H](O)CC[C@@H]1n1cc(C(N)=O)c(Nc2ccc(C(F)(F)F)c(F)c2)n1 (single isomer, unassigned) [Example 25-23, 1-[(1S,2S,4R or 1R,2R,4S)-2-cyano-4-hydroxycyclohexyl]-3-{[3-fluoro-4-(trifluoromethyl)phenyl]amino}-1H-pyrazole-4-carboxamide] | 2
8 | CNC(=O)c1ccc(Nc2nn([C@H]3CCCC[C@@H]3C#N)cc2C(N)=O)cc1 (racemic) [Example 17-4, 1-[(1S,2S and 1R,2R)-2-cyanocyclohexyl]-3-{[4-(methylcarbamoyl)phenyl]amino}-1H-pyrazole-4-carboxamide] | 0.58
9 | CC(C)(C)OC(=O)N[C@@H]1CC[C@H](C#N)C(n2cc(C(N)=O)c(Nc3ccc(F)cc3)n2)C1 (single isomer, unassigned) [Example 44-2, tert-Butyl[(1R,3S,4S or 1S,3R,4R)-3-{4-carbamoyl-3-[(4-fluorophenyl)amino]-1H-pyrazol-1-yl}-4-cyanocyclohexyl]carbamate] | 30
10 | N#C[C@H]1CCCC[C@@H]1n1cc(C(N)=O)c(Nc2ccc(S(=O)(=O)Nc3ccc4cccnc4c3)cc2)n1 (single isomer, unassigned) [Example 17-94, 1-[(1R,2R or 1S,2S)-2-cyanocyclohexyl]-3-{[4-(quinolin-7-ylsulfamoyl)phenyl]amino}-1H-pyrazole-4-carboxamide] | 5
11 | N#C[C@H]1C[C@@H](NCC(F)F)CC[C@@H]1n1cc(C(N)=O)c(Nc2ccnc(F)c2)n1 (single isomer, unassigned) [Example 28-115, 1-{(1S,2S,4S or 1R,2R,4R)-2-cyano-4-[(2,2-difluoroethyl)amino]cyclohexyl}-3-[(2-fluoropyridin-4-yl)amino]-1H-pyrazole-4-carboxamide] | 3
12 | N#C[C@H]1C[C@@H](N2CCC2)CC[C@@H]1n1cc(C(N)=O)c(Nc2ccc(Cl)c(F)c2)n1 (single isomer, unassigned) [Example 28-36, 1-[(1S,2S,4S or 1R,2R,4R)-4-azetidin-1-yl-2-cyanocyclohexyl]-3-[(4-chloro-3-fluorophenyl)amino]-1H-pyrazole-4-carboxamide] | 2

Second part, the compound after the results:

Row | IC50 [nM] | SMILES
13 | 0.29 | N#C[C@H]1C[C@H](N2CCC2)CC[C@@H]1n1cc(C(N)=O)c(Nc2ccc(S(=O)(=O)C(F)(F)F)cc2)n1 (single isomer, unassigned) [Example 28-169, 1-[(1S,2S,4R or 1R,2R,4S)-4-azetidin-1-yl-2-cyanocyclohexyl]-3-({4-[(trifluoromethyl)sulfonyl]phen-yl}amino)-1H-pyrazole-4-carboxamide]
14 | 31 | C[C@H](N[C@@H]1CC[C@H](n2cc(C(N)=O)c(Nc3ccc(C(F)(F)F)nc3)n2)[C@@H](C#N)C1)C1CC1 (single isomer, unassigned) [Example 28-19, 1-[(1S,2S,4R or 1R,2R,4S)-2-cyano-4-{[(1S)-1-cyclopropylethyl]amino}cyclo-hexyl]-3-{[6-(trifluoromethyl)pyridin-3-yl]amino}-1H-pyrazole-4-carboxamide]
15 | 0.06 | CC1(C)CN([C@@H]2CC[C@H](n3cc(C(N)=O)c(Nc4ccc([C@H](O)C(F)(F)F)cc4)n3)[C@@H](C#N)C2)C1 (single isomer, unassigned) [Example 28-44, 1-[(1S,2S,4R or 1R,2R,4S)-2-cyano-4-(3,3-dimethylazetidin-1-yl)cyclohexyl]-3-({4-[(1S or 1R)-2,2,2-trifluoro-1-hydroxyethyl]phenyl}amino)-1H-pyrazole-4-carboxamide]
16 | 0.9 | N#C[C@H]1C[C@@H](NC2CC2)CC[C@@H]1n1cc(C(N)=O)c(Nc2ccc(C(F)(F)F)cc2)n1 (single isomer, unassigned) [Example 28-137, 1-[(1S,2S,4S or 1R,2R,4R)-2-cyano-4-(cyclopropylamino)cyclohexyl]-3-{[4-(trifluoromethyl)phenyl]amino}-1H-pyrazole-4-carboxamide]
17 | 6 | CC(C)CN[C@H]1CC[C@@H](n2cc(C(N)=O)c(Nc3ccc(C(F)(F)F)cc3)n2)[C@H](C#N)C1 (single isomer, unassigned) [Example 30-7, 1-{(1R,2R,4S or 1S,2S,4R)-2-cyano-4-[(2-methyl-propyl)amino]cyclohexyl}-3-{[4-(trifluoro-methyl)phenyl]amino}-1H-pyrazole-4-carboxamide]
18 | 0.7 | N#C[C@H]1CC(NC2CC2)CCC1n1cc(C(N)=O)c(Nc2ccc(S(=O)(=O)C(F)(F)F)cc2)n1 (mixture of isomers) [Example 27-10, 1-[(1S,2S and 1R,2R)-2-cyano-4-(cyclopropylamino)cyclohexyl]-3-({4-[(trifluoromethyl)sulfonyl]phenyl}amino)-1H-pyrazole-4-carboxamide]
19 | 8 | CN(C)[C@@H]1CC[C@H](n2cc(C(N)=O)c(Nc3ccc(C(F)(F)F)nc3)n2)[C@@H](C#N)C1 (single isomer, unassigned) [Example 28-25, 1-[(1S,2S,4R or 1R,2R,4S)-2-cyano-4-(dimethylamino)cyclohexyl]-3-{[6-(trifluoromethyl)pyridin-3-yl]amino}-1H-pyrazole-4-carboxamide]
20 | 0.15 | N#C[C@H]1C[C@@H](N2CCC2)CC[C@@H]1n1cc(C(N)=O)c(Nc2ccc(S(=O)(=O)C(F)(F)F)cc2)n1 (single isomer, unassigned) [Example 28-168, 1-[(1S,2S,4S or 1R,2R,4R)-4-azetidin-1-yl-2-cyano-cyclohexyl]-3-({4-[(trifluoro-methyl)sulfonyl]phenyl}amino)-1H-pyrazole-4-carboxamide]
21 | 10 | N#C[C@@H]1C[C@H](C(=O)NC2CCC2)CC[C@H]1n1cc(C(N)=O)c(Nc2ccc(Cl)cc2)n1 (single isomer, unassigned) [Example 35-11, 3-[(4-chlorophenyl)amino]-1-[(1R,2R,4R or 1S,2S,4S)-2-cyano-4-(cyclobutylcarbamoyl)cyclohexyl]-1H-pyrazole-4-carboxamide]
22 | 0.15 | CN(C(C1CC1)C1CC1)[C@H]1CC[C@H](n2cc(C(N)=O)c(Nc3ccc(S(=O)(=O)C(F)(F)F)cc3)n2)[C@@H](C#N)C1 (single isomer, unassigned) [Example 28-178, 1-{(1S,2S,4S or 1R,2R,4R)-2-cyano-4-[(dicyclopropyl-methyl)(methyl)amino]cyclo-hexyl}-3-({4-[(trifluoromethyl)sulfonyl]phen-yl}amino)-1H-pyrazole-4-carboxamide]
23 | 0.9 | N#C[C@H]1C[C@H](OCC2CC2)CC[C@@H]1n1cc(C(N)=O)c(Nc2ccc([C@H](O)C(F)(F)F)cc2)n1 (single isomer, unassigned) [Example 26-7, 1-[(1S,2S,4R or 1R,2R,4S)-2-cyano-4-(cyclopropylmethoxy)cyclohexyl]-3-({4-[(1S or 1R)-2,2,2-trifluoro-1-hydroxyethyl]phenyl]amino)-1H-pyrazole-4-carboxamide]
24 | 1 | N#C[C@@H]1C[C@H](OCC2CC2)CC[C@H]1n1cc(C(N)=O)c(Nc2ccc([C@H](O)C(F)(F)F)cc2)n1 (single isomer, unassigned) [Example 26-6, 1-[(1R,2R,4R or 1S,2S,4S)-2-cyano-4-(cyclopropylmethoxy)cyclohexyl]-3-({4-[(1S or 1R)-2,2,2-trifluoro-1-hydroxyethyl]phenyl}amino)-1H-pyrazole-4-carboxamide]
25 | 0.3 | CN(C)[C@H]1CC[C@H](n2cc(C(N)=O)c(Nc3ccc(C(F)(F)F)cc3)n2)[C@@H](C#N)C1 (single isomer, unassigned) [Example 28-188, 1-[(1S,2S,4S or 1R,2R,4R)-2-cyano-4-(dimethylamino)cyclohexyl]-3-{[4-(trifluoromethyl)phenyl]amino}-1H-pyrazole-4-carboxamide]
26 | 0.4 | CC1(CN[C@H]2CC[C@H](n3cc(C(N)=O)c(Nc4ccc(C(F)(F)F)cc4)n3)[C@@H](C#N)C2)COC1 (single isomer, unassigned) [Example 28-26, 1-[(1S,2S,4S or 1R,2R,4R)-2-cyano-4-{[(3-methyloxetan-3-yl)methyl]amino}cyclohexyl]-3-{[4-(trifluoromethyl)phenyl]amino}-1H-pyrazole-4-carboxamide]
